Measurements taken from patent US20260184708A1, “PYRIDAZINONES AND METHODS OF USE THEREOF” (GFB (ABC), LLC, priority 2017, published 2026).
Like-named read-outs stand apart in the source and are kept apart here.

Amino acid sequences for entries named in this document (tags omitted). Residues count along the entry.
UniProt Q9UL62, whole entry: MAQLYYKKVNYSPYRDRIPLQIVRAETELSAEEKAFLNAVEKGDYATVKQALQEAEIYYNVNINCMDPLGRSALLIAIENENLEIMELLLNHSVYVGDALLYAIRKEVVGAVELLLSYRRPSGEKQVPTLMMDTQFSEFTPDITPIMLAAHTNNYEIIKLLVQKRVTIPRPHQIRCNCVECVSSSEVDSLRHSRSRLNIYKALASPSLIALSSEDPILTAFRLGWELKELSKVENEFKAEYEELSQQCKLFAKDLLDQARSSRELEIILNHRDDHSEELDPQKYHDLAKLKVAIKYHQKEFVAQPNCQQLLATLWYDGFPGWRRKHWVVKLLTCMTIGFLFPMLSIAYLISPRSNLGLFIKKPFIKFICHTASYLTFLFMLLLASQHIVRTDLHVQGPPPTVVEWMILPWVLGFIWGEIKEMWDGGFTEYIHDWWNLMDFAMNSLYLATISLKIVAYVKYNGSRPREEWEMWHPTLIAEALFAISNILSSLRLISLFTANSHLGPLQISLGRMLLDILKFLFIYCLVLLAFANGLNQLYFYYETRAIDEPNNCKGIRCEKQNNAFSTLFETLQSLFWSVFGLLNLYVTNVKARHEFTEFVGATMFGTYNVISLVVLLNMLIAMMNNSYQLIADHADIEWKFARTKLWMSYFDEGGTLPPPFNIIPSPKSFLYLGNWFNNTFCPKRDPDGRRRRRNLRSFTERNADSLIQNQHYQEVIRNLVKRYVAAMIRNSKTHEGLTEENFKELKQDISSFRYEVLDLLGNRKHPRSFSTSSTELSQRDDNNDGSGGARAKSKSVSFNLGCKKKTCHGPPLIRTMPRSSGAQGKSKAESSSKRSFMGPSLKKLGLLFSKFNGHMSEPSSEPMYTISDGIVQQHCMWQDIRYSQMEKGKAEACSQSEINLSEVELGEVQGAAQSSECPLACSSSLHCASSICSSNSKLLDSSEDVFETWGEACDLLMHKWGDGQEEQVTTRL
UniProt Q9UBN4, 1-982 isoform 5: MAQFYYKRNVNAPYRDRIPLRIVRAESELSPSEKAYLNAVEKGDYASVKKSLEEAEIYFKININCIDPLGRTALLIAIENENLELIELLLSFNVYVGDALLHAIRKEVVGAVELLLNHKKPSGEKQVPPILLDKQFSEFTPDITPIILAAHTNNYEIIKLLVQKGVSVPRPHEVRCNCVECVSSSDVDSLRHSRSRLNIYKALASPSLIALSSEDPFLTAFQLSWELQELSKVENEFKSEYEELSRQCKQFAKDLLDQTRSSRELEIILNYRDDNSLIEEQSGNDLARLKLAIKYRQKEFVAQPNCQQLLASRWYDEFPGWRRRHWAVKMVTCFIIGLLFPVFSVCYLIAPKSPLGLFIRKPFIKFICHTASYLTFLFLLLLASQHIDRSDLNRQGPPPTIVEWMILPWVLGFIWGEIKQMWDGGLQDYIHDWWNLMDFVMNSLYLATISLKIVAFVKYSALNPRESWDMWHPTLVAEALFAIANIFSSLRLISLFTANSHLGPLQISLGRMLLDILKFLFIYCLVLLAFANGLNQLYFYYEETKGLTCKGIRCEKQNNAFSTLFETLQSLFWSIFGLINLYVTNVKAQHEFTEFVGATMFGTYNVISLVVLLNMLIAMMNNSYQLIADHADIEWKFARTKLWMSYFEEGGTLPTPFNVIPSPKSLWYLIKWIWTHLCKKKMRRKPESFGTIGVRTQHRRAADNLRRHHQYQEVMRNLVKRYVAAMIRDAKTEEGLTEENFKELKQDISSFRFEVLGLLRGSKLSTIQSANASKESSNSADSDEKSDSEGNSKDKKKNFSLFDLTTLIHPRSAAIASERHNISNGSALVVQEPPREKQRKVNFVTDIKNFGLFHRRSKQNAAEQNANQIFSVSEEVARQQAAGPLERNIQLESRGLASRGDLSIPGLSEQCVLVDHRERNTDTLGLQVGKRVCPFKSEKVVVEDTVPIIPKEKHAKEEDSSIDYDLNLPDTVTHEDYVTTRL

Assays:
TRPC5 = TRPC5 (Homo sapiens, UniProt Q9UL62); test: TRPC5 automated patch clamp assay (Qpatch), current block after rosiglitazone stimulation
TRPC4 = TRPC4 (Homo sapiens, UniProt Q9UBN4); test: TRPC4 FLIPR Assay (HEK-TREx hTRPC4, Englerin A stimulation); conditions: read-out: TRPC4 FLIPR IC50, Table 8
[1] = read-out: TRPC5_QP_ XC50_80, Table 5, HEK293 cells overexpressing TRPC5, 80 mV
[2] = read-out: TRPC5_QP_ XC50_100, Table 5, HEK293 cells overexpressing TRPC5, 100 mV

SMILES	IC50 (TRPC5; [1]) [µM]	IC50 (TRPC5; [2]) [µM]	IC50 (TRPC5; read-out: TRPC5_QP_ XC50_80, Table 4, HEK293 cells overexpressing TRPC5, 80 mV) [µM]	IC50 (TRPC5; read-out: TRPC5_QP_ XC50_100, Table 4, HEK293 cells overexpressing TRPC5, 100 mV) [µM]	IC50 (TRPC4) [nM]
O=C1CN(c2c(Cl)cn[nH]c2=O)CCN1Cc1ccc(F)cc1C(F)(F)F	10 to 500	10 to 500	–	–	–
Cc1ccccc1[C@H](C)N1CCN(c2cn[nH]c(=O)c2Cl)CC1	–	–	1 to 5	1 to 5	–
O=C1CN(c2c(Br)n[nH]c(=O)c2Cl)CCN1Cc1ccccc1OC(F)(F)F	10 to 500	10 to 500	–	–	–
CCc1ncccc1[C@H](C)N1CCN(c2cn[nH]c(=O)c2Cl)[C@H](C)C1	–	–	–	–	0.01 to 1000

Second part, the molecule after the results:

IC50 (TRPC5; [1]) [µM]	IC50 (TRPC5; [2]) [µM]	IC50 (TRPC5; read-out: TRPC5_QP_ XC50_80, Table 4, HEK293 cells overexpressing TRPC5, 80 mV) [µM]	IC50 (TRPC5; read-out: TRPC5_QP_ XC50_100, Table 4, HEK293 cells overexpressing TRPC5, 100 mV) [µM]	IC50 (TRPC4) [nM]	SMILES
10 to 500	10 to 500	–	–	–	O=C1CN(c2c(Br)n[nH]c(=O)c2Cl)CCN1Cc1ccc(F)cc1C(F)(F)F
10 to 500	10 to 500	–	–	–	O=C1CN(c2c(Cl)cn[nH]c2=O)CCN1Cc1ccc(C(F)(F)F)cc1
5 to 10	5 to 10	–	–	–	O=C1CN(c2c(Cl)cn[nH]c2=O)CCN1Cc1ccccc1C(F)(F)F
